Results as given in US20210379094A1, “METHOD FOR REDUCING DRUG-INDUCED NEPHROTOXICITY” (Yissum Research Development Company of the Hebrew …, priority 2019, published 2021).

Tests used:
HK-2 cells = assay: Standard 2D LIVE/DEAD dose-dependent toxicity assay; type: cell-based, human; details: standard 2D cell culture, 24 hours
Method: Bioreactors were perfused with different concentrations of compounds dissolved in culture medium. […] TC50 concentrations were determined using MATLAB by sigmoidal curve fitting. […] Time to onset was analyzed by MATLAB based on LPF and trend assessment. […] Live cells were positive for green fluorescence due to hydrolysis of the acetoxymethyl ester group by intracellular esterases. Dead cells were positive for red fluorescence due to ethidium homodimer-1 binding intracellular DNA, possible in intact membranes.

[1] = test system: HK-2 and RPTEC monolayers; assay: Lipid accumulation assay (LipidTOX phospholipidosis and steatosis); type: cell-based, human; details: 48 h exposure

For Gentamicin, the TC50 (HK-2 cells) was 182.4 mM and the “neutral lipid accumulation and phospholipidosis” value [1] was “mainly neutral lipids”.
